# Reported melting point values for industrial, environmental and drug-like chemicals

Source: data files of OPERA 2.9 (Mansouri et al.), github.com/kmansouri/OPERA.

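These are experimental values that the OPERA curators gathered from public databases to train and test their QSAR models. One number stands for a compound and property, with no spread given. Conditions of the individual experiments are not part of the data. Where a salt, mixture or single isomer is drawn, the source does not say that exactly this form was tested. Some upstream entries may be estimates or bounds without being marked so.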

The melting point is given in degrees Celsius. Cells with "n/a" have no entry in this list. The databases behind each value are named after "via".

SMILES	name	MP (°C)	via
O=C(O)c1nn(Cc2ccccc2)c(=O)c2ccccc12	3-Benzyl-4-oxo-3,4-dihydrophthalazine-1-carboxylic acid	200	OCHEM
Cc1c(C(=O)O)sc2ncn(C)c(=O)c12	n/a	216	OCHEM
O=C1CN(C(=O)CCl)c2ccccc2N1	4-(Chloroacetyl)-3,4-dihydroquinoxalin-2(1H)-one	116	OCHEM
O=C(NO)C12CC3CC(CC(C3)C1)C2	n-hydroxyadamantane-1-carboxamide	111	OCHEM
CCCCCCCCCCCCCCC(CO)CCCCCCCCCCCC (stereo not given)	1-Hexadecanol, 2-dodecyl-	27.5	eChemPortal
O=C(O)Cn1cncn1	1,2,4-Triazole-1-acetic acid	201.5	OCHEM
NC(=[NH2+])SCC[NH3+].[Br-].[Br-]	S-2-Aminoethylthiouronium bromide hydrobromide	193	OCHEM
Nn1c(-c2ccccc2Br)n[nH]c1=S	4-amino-5-(2-bromophenyl)-4H-1,2,4-triazole-3-thiol	189	OCHEM
CCCCN1C(=O)c2ccc(C(=O)O)cc2C1=O	2-butyl-1,3-dioxo-2,3-dihydro-1H-isoindole-5-carboxylic acid	153	OCHEM
O=C(O)c1cc(S(=O)(=O)N2CCOCC2)ccc1O	2-Hydroxy-5-(morpholine-4-sulfonyl)-benzoic acid	235	OCHEM
O=C(O)Cc1coc2ccc3ccccc3c12	Naphtho[2,1-b]furan-1-yl-acetic acid	167	OCHEM
COC(=O)c1c(-c2ccc(F)cc2)csc1N	methyl 2-amino-4-(4-fluorophenyl)thiophene-3-carboxylate	136	OCHEM
COc1cc(C=O)ccc1OCC#N	(4-Formyl-2-methoxyphenoxy)acetonitrile	76	OCHEM
CC(=O)Nc1cc(NC(C)=O)cc(C(=O)O)c1	Benzoic acid, 3,5-bis(acetylamino)-	188	OCHEM
C=CCn1c(=S)[nH]c2cc(Cl)ccc2c1=O	3-Allyl-7-chloro-2-mercapto-3H-quinazolin-4-one	140	OCHEM
Nn1c(-c2ccco2)n[nH]c1=S	n/a	208	OCHEM
CC1(C)[C@@H](/C=C(\Cl)c2ccc(Cl)cc2)[C@@H]1C(=O)O (relative stereo)	n/a	145	eChemPortal
Nc1nc(-c2sccc2Br)cs1	4-(3-Bromothiophen-2-yl)-1,3-thiazol-2-amine	152	OCHEM
COC(=O)C(=O)CC(=O)c1cc(OC)ccc1OC	methyl 4-(2,5-dimethoxyphenyl)-2,4-dioxobutanoate	87.5	OCHEM
COc1ccc(-n2c(=S)[nH]c3sc4c(c3c2=O)CCCC4)cc1	n/a	313	OCHEM
Nc1nc(-c2cccc([N+](=O)[O-])c2)cs1	4-(3-Nitrophenyl)-1,3-thiazol-2-amine	187	OCHEM
Cc1c([N+](=O)[O-])cccc1S(=O)(=O)Cl	2-Methyl-3-nitrobenzene-1-sulfonyl chloride	48	OCHEM
CON(C)S(=O)(=O)c1ccc(N)cc1	4-amino-N-methoxy-N-methylbenzenesulfonamide	149	OCHEM
CC(=O)Nc1ccc(SCC(=O)O)cc1	2-(4-acetamidophenyl)sulfanylacetic Acid	157	OCHEM
Nc1nc(CC(=O)c2ccccc2)cs1	2-(2-amino-1,3-thiazol-4-yl)-1-phenylethanone	158	OCHEM
O=C(O)Cn1cnc2ccccc2c1=O	(4-Oxo-4H-quinazolin-3-yl)-acetic acid	242	OCHEM
S=c1[nH]nc(-c2ccc3c(c2)OCO3)o1	5-(2H-1,3-Benzodioxol-5-yl)-1,3,4-oxadiazole-2(3H)-thione	180	OCHEM
ClCc1nc(-c2cccc(Cl)c2)no1	5-(chloromethyl)-3-(3-chlorophenyl)-1,2,4-oxadiazole	40	OCHEM
Fc1ccc(-c2csc(Nc3ccccc3)n2)cc1	4-(4-Fluorophenyl)-N-phenyl-1,3-thiazol-2-amine	92	OCHEM
COc1cc2nc(-c3ccccc3)nc(Cl)c2cc1OC	4-chloro-6,7-dimethoxy-2-phenylquinazoline	133	OCHEM
O=P(N1CC1)(N1CC1)N(/N=C/c1ccc(Cl)cc1)c1ccccc1	TEPA,N-p-CL-benzyliden-N-Ph-hydrazin1yl	136	OCHEM
NC(=O)c1cnc(Cl)c(Cl)c1	5,6-dichloropyridine-3-carboxamide	205	OCHEM
COC(=O)CCCCCNC(N)=S	methyl 6-[(aminocarbonothioyl)amino]hexanoate	85	OCHEM
O=C(O)c1ccc(C2SCCS2)cc1	4-(1,3-dithiolan-2-yl)benzoic acid	167	OCHEM
Cc1ccc(NC(=O)CC#N)cc1	2-cyano-N-(4-methylphenyl)acetamide	189	OCHEM
Cc1nc(N2CCOCC2)sc1C=O	4-methyl-2-morpholin-4-yl-1,3-thiazole-5-carbaldehyde	167	OCHEM
CC(C)C(NC(=O)c1ccc(Cl)cc1)C(=O)O (stereo not given)	2-(4-Chloro-benzoylamino)-3-methyl-butyric acid	198	OCHEM
CNC(=O)c1ccc(S(=O)(=O)Cl)cc1	4-(Methylcarbamoyl)benzene-1-sulfonyl chloride	128	OCHEM
O=S(=O)(c1ccc(Br)s1)N1CCNCC1	1-[(5-bromothien-2-yl)sulfonyl]piperazine	200	OCHEM
CC(C)(C)OC(=O)N1CCc2nc(N)sc2C1	n/a	227	OCHEM
Nc1cc(S(=O)(=O)N2CCOCC2)ccc1Cl	2-Chloro-5-(morpholine-4-sulfonyl)aniline	178	OCHEM

Excerpt, the opening 7 entries:

| SMILES | name | MP (°C) | via |
|---|---|---|---|
| O=C(O)c1nn(Cc2ccccc2)c(=O)c2ccccc12 | 3-Benzyl-4-oxo-3,4-dihydrophthalazine-1-carboxylic acid | 200 | OCHEM |
| Cc1c(C(=O)O)sc2ncn(C)c(=O)c12 | n/a | 216 | OCHEM |
| O=C1CN(C(=O)CCl)c2ccccc2N1 | 4-(Chloroacetyl)-3,4-dihydroquinoxalin-2(1H)-one | 116 | OCHEM |
| O=C(NO)C12CC3CC(CC(C3)C1)C2 | n-hydroxyadamantane-1-carboxamide | 111 | OCHEM |
| CCCCCCCCCCCCCCC(CO)CCCCCCCCCCCC (stereo not given) | 1-Hexadecanol, 2-dodecyl- | 27.5 | eChemPortal |
| O=C(O)Cn1cncn1 | 1,2,4-Triazole-1-acetic acid | 201.5 | OCHEM |
| NC(=[NH2+])SCC[NH3+].[Br-].[Br-] | S-2-Aminoethylthiouronium bromide hydrobromide | 193 | OCHEM |